Earlier results as cited in paper PMC5201133 (Journal of medicinal chemistry, 2016).

Target: A3AR
Details: read-out: A3AR Ki; rat (r); archival data ref 22, 24–27; cited from earlier work

Nc1ncnc2c1ncn2[C@@H]1O[C@H](C(=O)NC2CC2)[C@@H](O)[C@H]1O [compound 9, reference compound]
Ki: 1.6 µM
